Test results from ChEMBL document CHEMBL4680180, “Discovery of 3-((dimethylamino)methyl)-4-hydroxy-4-(3-methoxyphenyl)-N-phenylpiperidine-1-carboxamide as novel potent analgesic” (2020).

tested on: Mus musculus; test: Antinociceptive activity in Kunming mouse assessed as maximum possible effect by measuring latency threshold at 10 mg/kg, ip by hot plate test relative to control

Row | Compound | MPE
1 | CN(C)CC1CN(C(=O)Nc2cc(C(F)(F)F)cc(C(F)(F)F)c2)CCC1(O)c1ccccc1.Cl (centres undefined) | < 100%
2 | CN(C)CC1CN(C(=O)NCc2ccccc2)CCC1(O)c1ccccc1.Cl (centres undefined) | < 100%
3 | CN(C)CC1CN(C(=O)Nc2cccc(Cl)c2)CCC1(O)c1ccccc1.Cl (centres undefined) | < 100%
4 | CN(C)CC1CN(C(=O)Nc2ccc(Cl)cc2)CCC1(O)c1ccccc1.Cl (centres undefined) | < 100%
5 | CN(C)CC1CN(C(=O)Nc2ccc(F)c(Cl)c2)CCC1(O)c1ccccc1.Cl (centres undefined) | < 100%
6 | CN(C)CC1CN(C(=O)N(C)c2cccc(Cl)c2)CCC1(O)c1ccccc1.Cl (centres undefined) | < 100%
7 | CN(C)CC1CN(C(=O)Nc2cccc(F)c2)CCC1(O)c1ccccc1.Cl (centres undefined) | 100%
8 | CN(C)CC1CN(C(=O)Nc2cc(Cl)c(Cl)c(Cl)c2)CCC1(O)c1ccccc1.Cl (centres undefined) | < 100%
9 | CN(C)CC1CN(C(=O)Nc2ccc(Cl)c(Cl)c2)CCC1(O)c1ccccc1.Cl (centres undefined) | < 100%
10 | CN(C)CC1CN(C(=O)NC23CC4CC(CC(O)(C4)C2)C3)CCC1(O)c1ccccc1.Cl (centres undefined) | < 100%
11 | COC(=O)c1sccc1NC(=O)N1CCC(O)(c2ccccc2)C(CN(C)C)C1.Cl (centres undefined) | < 100%
12 | CN(C)CC1CN(C(=O)Nc2ccc3ccccc3c2)CCC1(O)c1ccccc1.Cl (centres undefined) | < 100%
13 | CN(C)CC1CN(C(=O)Nc2ccc(F)c(F)c2)CCC1(O)c1ccccc1.Cl (centres undefined) | < 100%
14 | CC(NC(=O)N1CCC(O)(c2ccccc2)C(CN(C)C)C1)C12CC3CC(CC(C3)C1)C2.Cl (centres undefined) | < 100%
15 | C[C@H](NC(=O)N1CCC(O)(c2ccccc2)C(CN(C)C)C1)c1ccccc1.Cl (some centres undefined) | < 100%
16 | COC(=O)c1ccsc1NC(=O)N1CCC(O)(c2ccccc2)C(CN(C)C)C1.Cl (centres undefined) | < 100%
17 | CN(C)CC1CN(C(=O)Nc2ccccc2)CCC1(O)c1ccccc1.Cl (centres undefined) | 100%
18 | CN(C)CC1CN(C(=O)NC23CC4CC(CC(C4)C2)C3)CCC1(O)c1ccccc1.Cl (centres undefined) | < 100%

tested on: Mus musculus; test: Antinociceptive activity in Kunming mouse assessed as maximum possible effect by measuring latency threshold at 50 mg/kg, ip by hot plate test relative to control

Row | Compound | Activity
19 | COc1cccc([C@@]2(O)CCCC[C@@H]2CN(C)C)c1 | < 100%
